Measured affinities in a library of Ab-91 heavy chain variants

Data: MIT Lincoln Laboratory AlphaSeq set, Engelhart et al. 2022, doi:10.1038/s41597-022-01779-4, as distributed in FLAb.

Target: peptide PDVDLGDISGINAS, taken from heptad repeat 2 (HR2) of SARS-CoV-2 spike.

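The starting antibody came from a phage panning campaign against this peptide. The library (AAYL51) carries one to three amino acid substitutions per variant, with no insertions or deletions. Affinity was read by AlphaSeq, a pooled yeast mating assay with surface-displayed partners. After mating in shaken culture at 30 °C for 16 h, diploids were selected and their barcode pairs sequenced. The ratio of observed to expected reads was calibrated, replicate by replicate, on BCL2-family standards whose Kd was known from biolayer interferometry. The assay was run in three technical replicates.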

Parent: Ab-91, a human scFv built as VL, three GGGGS repeats, VH. Only the CDRs of the heavy chain vary.
VL: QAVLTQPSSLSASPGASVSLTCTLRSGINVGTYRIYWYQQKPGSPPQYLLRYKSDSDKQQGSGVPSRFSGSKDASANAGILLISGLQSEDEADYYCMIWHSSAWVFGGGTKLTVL
VH: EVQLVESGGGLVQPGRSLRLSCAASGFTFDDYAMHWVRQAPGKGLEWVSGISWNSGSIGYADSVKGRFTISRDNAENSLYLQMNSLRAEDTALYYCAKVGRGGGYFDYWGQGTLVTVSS

Substitutions are numbered in sequence along the VH above, starting at 1 (not Kabat).
Scale: log10 of Kd in nM, estimated from mating counts; low values are strong binders.
Averages over replicates are reported, and they cover detected replicates only.
A pair that was not seen in any replicate is written "nd"; this usually means weak binding, but a binder can also be missed.
Three control strains display no target. For library AAYL51, 21% of the pairings with them gave a signal, with a median of 4.54 and one signal in twenty below 3.26, so weak values seen in few replicates may be background.
Parent in this assay: reference entry 1.86, copy in this library 0.88.

changes,"log10 Kd (nM), mean",replicates with signal
G56A/A61F/R101A,nd,0 of 3
G26W/G59L/R101P,nd,0 of 3
D30V/Y105A/Y108E,4.23,3 of 3
F27G/S63L/G104T,3.73,3 of 3
F27P/N54T,nd,0 of 3
F27Q/G50L/V64R,nd,0 of 3
V99H/G104K/Y108V,4.94,2 of 3
G26Y/K65T/D107M,nd,0 of 3
A33I/G56Y/G100E,nd,0 of 3
W53C/N54V/I58C,nd,0 of 3
Y32N/H35G/G56S,nd,0 of 3
I51W/S57C/K65R,nd,0 of 3
H35N/G100R/D107Q,nd,0 of 3
F29A/W53P/A61V,0.91,3 of 3
S55G/F106C/Y108I,nd,0 of 3
F29A/V64N/G102S,nd,0 of 3
D30E/S63T/G100L,3.02,3 of 3
W53A/N54Q/Y105N,0.59,3 of 3
Y32R/S52C,3.09,1 of 3
T28N/S55C/D62W,2.69,1 of 3
T28F/S55R/D107W,nd,0 of 3
F27R/T28E/F106G,nd,0 of 3
D30N/G102I,nd,0 of 3
D31R/V64T/G104K,nd,0 of 3
A33Y/D107H/Y108K,nd,0 of 3

Second part, the sequence after the result:

"log10 Kd (nM), mean",replicates with signal,changes
0.52,3 of 3,D31Q/D62E/Y108E
2.11,3 of 3,I58K/D62Q/V64F
nd,0 of 3,S52W/Y60E
5.03,1 of 3,G26H/H35S/G56I
2.23,3 of 3,M34I/W53G/Y108D
nd,0 of 3,S52E/N54A/F106I
nd,0 of 3,G26A/G103F
nd,0 of 3,D30F/M34Y/G103M
5.44,1 of 3,F27L/M34W/G50I
nd,0 of 3,F29C/Y32E/S63Y
nd,0 of 3,F27V/S52W/V99F
3.19,3 of 3,G26C/Y108V
3.75,3 of 3,T28E/N54H/I58W
nd,0 of 3,F27M/A61F/D62M
nd,0 of 3,M34G/Y105V
nd,0 of 3,I51G/F106R
2.96,3 of 3,A61D/D62N/S63E
3.38,1 of 3,I51D/D62N/G104A
4.21,2 of 3,D31G/G56Y/G100W
nd,0 of 3,F27L/A33W/G104C
nd,0 of 3,Y32R/G56K/G59V
4.16,3 of 3,D31M/S55C/K65G
5.48,2 of 3,F27W/D30L/K65P
5.08,1 of 3,G26W/F29V/G103N
2.56,3 of 3,Y32H/K65R/R101C

4 of these entries, quoted again:

changes	log10 Kd (nM), mean	replicates with signal
G26A/G103F	nd	0 of 3
G26H/H35S/G56I	5.03	1 of 3
G26Y/K65T/D107M	nd	0 of 3
G56A/A61F/R101A	nd	0 of 3